Measurements taken from PMC5027283, “The oncometabolite 2-hydroxyglutarate activates the mTOR signalling pathway” (Nature Communications, 2016).

Target: T1, KDM4A (Homo sapiens, UniProt O75164)
T1 sequence (O75164 2-1064): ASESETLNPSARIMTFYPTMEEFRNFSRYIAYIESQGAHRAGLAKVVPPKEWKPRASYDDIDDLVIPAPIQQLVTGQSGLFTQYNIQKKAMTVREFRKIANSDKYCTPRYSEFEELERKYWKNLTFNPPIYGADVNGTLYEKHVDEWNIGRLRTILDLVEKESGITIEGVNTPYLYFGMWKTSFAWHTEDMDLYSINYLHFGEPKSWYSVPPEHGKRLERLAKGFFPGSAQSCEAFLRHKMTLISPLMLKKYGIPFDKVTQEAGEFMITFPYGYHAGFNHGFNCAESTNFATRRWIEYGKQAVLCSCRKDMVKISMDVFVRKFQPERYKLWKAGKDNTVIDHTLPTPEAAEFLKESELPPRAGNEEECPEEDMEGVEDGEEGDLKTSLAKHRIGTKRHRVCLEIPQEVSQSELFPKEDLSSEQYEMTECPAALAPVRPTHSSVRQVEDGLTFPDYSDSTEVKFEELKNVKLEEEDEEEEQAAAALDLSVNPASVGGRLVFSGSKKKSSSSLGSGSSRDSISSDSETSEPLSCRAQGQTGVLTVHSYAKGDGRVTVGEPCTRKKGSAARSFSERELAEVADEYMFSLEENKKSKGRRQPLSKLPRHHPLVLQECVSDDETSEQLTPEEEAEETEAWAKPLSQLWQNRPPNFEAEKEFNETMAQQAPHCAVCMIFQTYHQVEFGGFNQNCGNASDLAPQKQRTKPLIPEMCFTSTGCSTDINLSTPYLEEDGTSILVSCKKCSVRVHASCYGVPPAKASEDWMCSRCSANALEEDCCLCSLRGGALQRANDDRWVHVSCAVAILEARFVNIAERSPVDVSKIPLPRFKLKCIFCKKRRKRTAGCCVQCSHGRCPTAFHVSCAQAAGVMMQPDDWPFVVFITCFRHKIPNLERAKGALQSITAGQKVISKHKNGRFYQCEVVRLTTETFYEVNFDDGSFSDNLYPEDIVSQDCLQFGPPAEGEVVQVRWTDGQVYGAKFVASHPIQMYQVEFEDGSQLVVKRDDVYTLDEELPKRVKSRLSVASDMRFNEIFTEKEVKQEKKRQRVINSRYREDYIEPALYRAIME
Assay: RapidFire mass spectrometry in vitro demethylation assay, recombinant human KDM4A, H3K9(me3) peptide
Assay type: biochemical

O=C(O)CC[C@@H](O)C(=O)O [R-2-hydroxyglutarate]
IC50: 2.1 µM
